## Ab-14 heavy chain CDR variants: yeast mating affinities

Antigen: PDVDLGDISGINAS, a 14-residue peptide of the SARS-CoV-2 spike HR2 region.

The variants keep the light chain, the linker and the frameworks of Ab-14 (scFv order VH, a (GGGGS)3 linker, VL).
VH: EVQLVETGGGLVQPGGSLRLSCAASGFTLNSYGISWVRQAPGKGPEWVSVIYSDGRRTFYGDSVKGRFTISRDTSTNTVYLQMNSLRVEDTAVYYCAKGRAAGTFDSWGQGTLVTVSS
VL: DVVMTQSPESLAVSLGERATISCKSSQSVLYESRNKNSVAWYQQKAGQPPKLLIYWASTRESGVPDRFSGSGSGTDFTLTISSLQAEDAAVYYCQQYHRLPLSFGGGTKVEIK

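The library (AAYL49) carries one to three amino acid substitutions per variant, with no insertions or deletions. The assay is AlphaSeq: two haploid yeast populations carry antibody and antigen on their surface. After mating in shaken culture at 30 °C for 16 h, diploids were selected and their barcode pairs sequenced. Scores were corrected for input abundance and mapped to Kd with protein pairs of known affinity run in the same pool. There are three technical replicates.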

Each variant's VH is given in full.
Kd is apparent (estimated from mating counts) and averaged on the log scale over replicates with a signal. Smaller is tighter.
An entry "no signal" has no value in the source: the pair was not observed among the diploids in any replicate. This suggests poor binding but is not conclusive.

| VH | Kd | seen in |
|---|---|---|
| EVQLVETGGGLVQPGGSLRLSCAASGFTLNPYGISWVRQAPGKGPEWVSVPYSDGRRTFYGHSVKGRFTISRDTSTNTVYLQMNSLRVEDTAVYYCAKGRAAGTFDSWGQGTLVTVSS | 440 µM | 3/3 |
| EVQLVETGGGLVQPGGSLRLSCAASGFTLNSYGISWVRQAPGKGPEWVSVIYSDGRRTFYGDIVKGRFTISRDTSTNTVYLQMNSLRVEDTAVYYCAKPIAAGTFDSWGQGTLVTVSS | 230 µM | 3/3 |
| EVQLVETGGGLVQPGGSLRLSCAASGFTLNSYGKSWVRQAPGKGPEWVSVIYSDGRRTFYGDSVKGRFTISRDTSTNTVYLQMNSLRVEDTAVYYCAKERAAGTFDSWGQGTLVTVSS | 23 µM | 3/3 |
| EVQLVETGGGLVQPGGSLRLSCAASGFHLNSYGISWVRQAPGKGPEWVSVIYSDGRVTFYGDSVKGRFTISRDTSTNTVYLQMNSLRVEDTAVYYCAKGRAAGFFDSWGQGTLVTVSS | no signal | 0/3 |
| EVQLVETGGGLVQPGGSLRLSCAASGFTLDSYGISWVRQAPGKGPEWVSVIYSDGRRTFYGFSVKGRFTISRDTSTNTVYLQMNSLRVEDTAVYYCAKGRAAGTTDSWGQGTLVTVSS | 170 µM | 1/3 |
| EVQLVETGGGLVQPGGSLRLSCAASGVTLNSYGISWVRQAPGKGPEWVSVIYSDGRRTFYGDSVKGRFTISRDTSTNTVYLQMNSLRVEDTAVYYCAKGRARGLFDSWGQGTLVTVSS | no signal | 0/3 |
| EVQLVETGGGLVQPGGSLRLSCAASGFTPNSYGISWVRQAPGKGPEWVSVIYSDGRRTFYDDSVKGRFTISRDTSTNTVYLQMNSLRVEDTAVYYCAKGRAGGTFDSWGQGTLVTVSS | 15 nM | 3/3 |
| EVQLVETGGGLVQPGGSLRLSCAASGFTLNSYGIDWVRQAPGKGPEWVSVIYSDGRRTFYGDSVQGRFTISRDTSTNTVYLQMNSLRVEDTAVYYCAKGRAAGTFDHWGQGTLVTVSS | no signal | 0/3 |
| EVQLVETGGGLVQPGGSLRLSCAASGFTLNSYGIKWVRQAPGKGPEWVSVILSDGRRTFYGDSVKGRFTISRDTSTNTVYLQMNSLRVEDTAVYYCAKGRAAGTFDDWGQGTLVTVSS | 38 µM | 2/3 |
| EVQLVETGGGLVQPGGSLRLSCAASGFTLNSYGISWVRQAPGKGPEWVSVIYKDGRRTFMGDSVKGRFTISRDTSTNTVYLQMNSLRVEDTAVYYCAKGVAAGTFDSWGQGTLVTVSS | no signal | 0/3 |
| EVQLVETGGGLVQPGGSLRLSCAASGFTLNSYGISWVRQAPGKGPEWVSVIYPDGRRTFYGDSVKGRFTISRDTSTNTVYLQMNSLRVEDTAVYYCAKGRTAGTFDYWGQGTLVTVSS | 2.3 µM | 3/3 |
| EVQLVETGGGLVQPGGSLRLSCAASRFTLNSYGISWVRQAPGKGPEWVSVIYSDGRETFYGDSVYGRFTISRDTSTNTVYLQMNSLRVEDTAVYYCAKGRAAGTFDSWGQGTLVTVSS | no signal | 0/3 |
| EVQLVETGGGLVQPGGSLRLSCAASGFTLNSYGISWVRQAPGKGPEWVSVIYSDGRRTFDGDSVKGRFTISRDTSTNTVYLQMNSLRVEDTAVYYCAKGGAAGGFDSWGQGTLVTVSS | 6.8 µM | 1/3 |
| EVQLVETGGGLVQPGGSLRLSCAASGFMLNSYGISWVRQAPGKGPEWVSVIYLDGRRTFYGDSVKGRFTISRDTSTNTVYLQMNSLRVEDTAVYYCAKGRAAGTFDSWGQGTLVTVSS | no signal | 0/3 |
| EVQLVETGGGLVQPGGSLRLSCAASGFTLNSYGISWVRQAPGKGPEWVSVIYSDFRRTFYYDSVKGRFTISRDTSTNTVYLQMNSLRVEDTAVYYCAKGRAAGTFDSWGQGTLVTVSS | 1.1 µM | 1/3 |
| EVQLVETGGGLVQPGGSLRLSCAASGFTLNSYGISWVRQAPGKGPEWVSVVYSDGRRHFYGDSVKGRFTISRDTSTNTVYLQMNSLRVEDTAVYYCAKGRAAGTFDSWGQGTLVTVSS | no signal | 0/3 |
| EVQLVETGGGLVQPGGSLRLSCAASIFTLNSYGISWVRQAPGKGPEWVSVIYSDGRRTFYGDSRKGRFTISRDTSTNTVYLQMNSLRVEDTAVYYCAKGRAAGTFDSWGQGTLVTVSS | no signal | 0/3 |
| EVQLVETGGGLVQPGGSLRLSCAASVFTLNSYGISWVRQAPGKGPEWVSVIYSDGRRPFYGDSVKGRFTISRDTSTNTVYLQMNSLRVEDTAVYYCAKGRAEGTFDSWGQGTLVTVSS | no signal | 0/3 |
| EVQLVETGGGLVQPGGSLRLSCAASGFTGNSYGISWVRQAPGKGPEWVSVIYSPGRRTFYGDSVKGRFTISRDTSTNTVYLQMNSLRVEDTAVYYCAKGRAAITFDSWGQGTLVTVSS | 9.9 µM | 1/3 |
| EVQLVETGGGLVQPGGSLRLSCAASGFFQNSYGISWVRQAPGKGPEWVSVIYSDGRRTFYGDSVKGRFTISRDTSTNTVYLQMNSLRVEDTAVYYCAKGRAAGGFDSWGQGTLVTVSS | no signal | 0/3 |
| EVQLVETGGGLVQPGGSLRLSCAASSFTLNPYGISWVRQAPGKGPEWVSVIYSDGRRTFYQDSVKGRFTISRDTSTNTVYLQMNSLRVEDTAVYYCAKGRAAGTFDSWGQGTLVTVSS | 5.7 µM | 1/3 |
| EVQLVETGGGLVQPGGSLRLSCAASGFTLNSRGISWVRQAPGKGPEWVSVIYSDGRRTFYSDSVKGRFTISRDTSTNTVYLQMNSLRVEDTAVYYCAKTRAAGTFDSWGQGTLVTVSS | no signal | 0/3 |
| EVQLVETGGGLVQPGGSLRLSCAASGFTLNSYGISWVRQAPGKGPEWVSVIYSDGGRTEYGDSVKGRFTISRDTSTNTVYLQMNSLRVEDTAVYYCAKGRAANTFDSWGQGTLVTVSS | 10 µM | 1/3 |
| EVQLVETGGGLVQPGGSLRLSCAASGFTLLSYGISWVRQAPGKGPEWVSVDYSDGFRTFYGDSVKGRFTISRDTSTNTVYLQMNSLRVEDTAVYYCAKGRAAGTFDSWGQGTLVTVSS | 1.5 µM | 1/3 |

For reference, 2 entries of the list once more:

| VH | Kd | seen in |
|---|---|---|
| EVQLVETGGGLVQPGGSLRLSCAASGFMLNSYGISWVRQAPGKGPEWVSVIYLDGRRTFYGDSVKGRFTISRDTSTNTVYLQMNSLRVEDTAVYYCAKGRAAGTFDSWGQGTLVTVSS | no signal | 0/3 |
| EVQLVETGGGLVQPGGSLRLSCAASGFTGNSYGISWVRQAPGKGPEWVSVIYSPGRRTFYGDSVKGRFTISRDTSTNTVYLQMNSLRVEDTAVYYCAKGRAAITFDSWGQGTLVTVSS | 9.9 µM | 1/3 |

For reference, the parent read 4.4 nM as the reference entry and 13 µM (one replicate of three) as a member of this library.
As a blank, each scFv also met three strains without target: over library AAYL49, 15% of these pairings were detected, typically at 11 µM and seldom below 680 nM.

Source: Engelhart et al. 2022 (doi:10.1038/s41597-022-01779-4), MIT Lincoln Laboratory and A-Alpha Bio; data file from the FLAb repository.